Literature values as cited in patent US12667624B2, “GIP derivative, long-acting conjugate thereof, and pharmaceutical composition comprising same” (HANMI PHARM. CO., LTD., priority 2020, dated 2026).

Details: J Clin Endocrinol Metab. 2000; cited from earlier work

For “glucose-dependent insulinotropic polypeptide [native GIP]”, the “half-life of the GIP in the human body” value is given as “about 7 minutes”.
